Tests used:
[1] = Poly(S-alkyl-L-methionine) stability studies in aqueous buffers; assay type: physicochemical; details: aqueous buffers ranging in pH from 5 to 9; 37° C., 24 h; S-alkyl-Met/Met ratio by 1H NMR
Protocol: The mixture was incubated on a 37° C. H2O bath for 24 h. […] The retentate was lyophilized.

[2] = potent nucleophile 2-mercaptopyridine; 37° C., 24 h

Poly(S-(2-hydroxy-4,7,10,13-tetraoxatetradecyl)-L-methionine sulfonium chloride) [compound 8]
stability in aqueous buffers [1]: good stability
stability against dealkylation by nucleophile [2]: quite stable

Source: patent US10351591B2, “Polypeptides, peptides, and proteins functionalized by alkylation of thioether groups via ring-opening reactions” (The Regents of the University of California, priority 2015, dated 2019)
